According to PubChem BioAssay (NCI):
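96-well plates; 48 h exposure; 5 concentrations. Endpoints by linear interpolation between flanking doses. Not reached: highest tested concentration assigned. Here, GI50 denotes the concentration required for 50% inhibition of growth. TGI is the concentration that stops growth completely.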

What was measured:
Experiment in all cases: NCI-60 cell line screen, 48 h
786-0 renal = tested on: 786-0 renal
A498 renal = tested on: A498 renal
A549 NSCLC = tested on: A549 NSCLC
ACHN renal = tested on: ACHN renal
BT-549 breast = tested on: BT-549 breast
CAKI-1 renal = tested on: CAKI-1 renal
CCRF-CEM leukemia = tested on: CCRF-CEM leukemia
COLO 205 colon = tested on: COLO 205 colon
DU-145 prostate = tested on: DU-145 prostate
EKVX NSCLC = tested on: EKVX NSCLC
HCC-2998 colon = tested on: HCC-2998 colon
HCT-116 colon = tested on: HCT-116 colon
HCT-15 colon = tested on: HCT-15 colon
HL-60(TB) leukemia = tested on: HL-60(TB) leukemia
HOP-62 NSCLC = tested on: HOP-62 NSCLC
HOP-92 NSCLC = tested on: HOP-92 NSCLC
HS 578T breast = tested on: HS 578T breast
HT29 colon = tested on: HT29 colon
K-562 leukemia = tested on: K-562 leukemia
KM12 colon = tested on: KM12 colon
LOX IMVI melanoma = tested on: LOX IMVI melanoma
M14 melanoma = tested on: M14 melanoma
MALME-3M melanoma = tested on: MALME-3M melanoma
MCF7 breast = tested on: MCF7 breast
MDA-MB-231 breast = tested on: MDA-MB-231 breast
MDA-MB-435 = tested on: MDA-MB-435
MOLT-4 leukemia = tested on: MOLT-4 leukemia
NCI-H226 lung = tested on: NCI-H226 lung
NCI-H23 lung = tested on: NCI-H23 lung
NCI-H322M lung = tested on: NCI-H322M lung
NCI-H460 lung = tested on: NCI-H460 lung
NCI-H522 lung = tested on: NCI-H522 lung
NCI/ADR-RES ovarian = tested on: NCI/ADR-RES ovarian
OVCAR-3 ovarian = tested on: OVCAR-3 ovarian
OVCAR-4 ovarian = tested on: OVCAR-4 ovarian
OVCAR-5 ovarian = tested on: OVCAR-5 ovarian
OVCAR-8 ovarian = tested on: OVCAR-8 ovarian
PC-3 prostate = tested on: PC-3 prostate
RPMI-8226 leukemia = tested on: RPMI-8226 leukemia
RXF 393 renal = tested on: RXF 393 renal
SF-268 CNS = tested on: SF-268 CNS
SF-295 CNS = tested on: SF-295 CNS
SF-539 CNS = tested on: SF-539 CNS
SK-MEL-2 melanoma = tested on: SK-MEL-2 melanoma
SK-MEL-5 melanoma = tested on: SK-MEL-5 melanoma
SK-OV-3 ovarian = tested on: SK-OV-3 ovarian
SN12C renal = tested on: SN12C renal
SNB-19 CNS = tested on: SNB-19 CNS
SNB-75 CNS = tested on: SNB-75 CNS
SR leukemia = tested on: SR leukemia
SW-620 colon = tested on: SW-620 colon
T-47D breast = tested on: T-47D breast
TK-10 renal = tested on: TK-10 renal
U251 CNS = tested on: U251 CNS
UACC-257 melanoma = tested on: UACC-257 melanoma
UACC-62 melanoma = tested on: UACC-62 melanoma
UO-31 renal = tested on: UO-31 renal

Molecule `Cc1c([N+](=O)[O-])cc([N+](=O)[O-])c(-c2c([N+](=O)[O-])cc([N+](=O)[O-])c(C)c2[N+](=O)[O-])c1[N+](=O)[O-]` has a GI50 (786-0 renal) of 2.71 µM, a TGI (786-0 renal) of 9.14 µM and a GI50 (A498 renal) of 17.2 µM. For the same molecule, the TGI (A498 renal) was 35.5 µM, the GI50 (A549 NSCLC) was 8.49 µM and the TGI (A549 NSCLC) was > 100 µM. It also gave a GI50 (ACHN renal) of 2.81 µM, a TGI (ACHN renal) of 6.62 µM and a GI50 (BT-549 breast) of 2.44 µM. For the same molecule, the TGI (BT-549 breast) was 5.63 µM, the GI50 (CAKI-1 renal) was 3.61 µM and the TGI (CAKI-1 renal) was 13.4 µM. The GI50 (CCRF-CEM leukemia) was 1.73 µM, the TGI (CCRF-CEM leukemia) was > 100 µM and the GI50 (COLO 205 colon) was 2.9 µM. The TGI (COLO 205 colon) was 6.64 µM, the GI50 (DU-145 prostate) was 2.74 µM and the TGI (DU-145 prostate) was > 100 µM. The GI50 (EKVX NSCLC) was 47.1 µM, the TGI (EKVX NSCLC) was > 100 µM and the GI50 (HCC-2998 colon) was 1.75 µM. For the same molecule, the TGI (HCC-2998 colon) was 3.89 µM, the GI50 (HCT-116 colon) was 0.856 µM and the TGI (HCT-116 colon) was > 100 µM. For the same molecule, the GI50 (HCT-15 colon) was 1.84 µM, the TGI (HCT-15 colon) was 4.48 µM and the GI50 (HL-60(TB) leukemia) was 0.494 µM. For the same molecule, the TGI (HL-60(TB) leukemia) was 18 µM, the GI50 (HOP-62 NSCLC) was 5.36 µM and the TGI (HOP-62 NSCLC) was > 100 µM. For the same molecule, the GI50 (HOP-92 NSCLC) was 3.4 µM, the TGI (HOP-92 NSCLC) was 22.1 µM and the GI50 (HS 578T breast) was 6.42 µM. The TGI (HS 578T breast) was > 100 µM, the GI50 (HT29 colon) was 1.08 µM and the TGI (HT29 colon) was 4.52 µM. For the same molecule, the GI50 (K-562 leukemia) was 0.786 µM, the TGI (K-562 leukemia) was > 100 µM and the GI50 (KM12 colon) was 2.86 µM. It also gave a TGI (KM12 colon) of 9.12 µM, a GI50 (LOX IMVI melanoma) of 0.323 µM and a TGI (LOX IMVI melanoma) of 11.8 µM. The GI50 (M14 melanoma) was 4.23 µM, the TGI (M14 melanoma) was > 100 µM and the GI50 (MALME-3M melanoma) was 1.72 µM. It also gave a TGI (MALME-3M melanoma) of 4.66 µM, a GI50 (MCF7 breast) of 0.183 µM and a TGI (MCF7 breast) of 0.767 µM. The GI50 (MDA-MB-231 breast) was 2.5 µM, the TGI (MDA-MB-231 breast) was 8.52 µM and the GI50 (MDA-MB-435) was 2.28 µM. The TGI (MDA-MB-435) was 5.07 µM, the GI50 (MOLT-4 leukemia) was 0.385 µM and the TGI (MOLT-4 leukemia) was > 100 µM. For the same molecule, the GI50 (NCI-H226 lung) was 2.59 µM, the TGI (NCI-H226 lung) was 5.8 µM and the GI50 (NCI-H23 lung) was 3.89 µM. For the same molecule, the TGI (NCI-H23 lung) was > 100 µM, the GI50 (NCI-H322M lung) was 3.76 µM and the TGI (NCI-H322M lung) was 9.44 µM. The GI50 (NCI-H460 lung) was 1.89 µM, the TGI (NCI-H460 lung) was 5.2 µM and the GI50 (NCI-H522 lung) was 1.75 µM. The TGI (NCI-H522 lung) was 4.93 µM, the GI50 (NCI/ADR-RES ovarian) was 4.31 µM and the TGI (NCI/ADR-RES ovarian) was > 100 µM. For the same molecule, the GI50 (OVCAR-3 ovarian) was 3.2 µM, the TGI (OVCAR-3 ovarian) was > 100 µM and the GI50 (OVCAR-4 ovarian) was 2.57 µM. It also gave a TGI (OVCAR-4 ovarian) of 6.26 µM, a GI50 (OVCAR-5 ovarian) of 2.32 µM and a TGI (OVCAR-5 ovarian) of 6.51 µM. It also gave a GI50 (OVCAR-8 ovarian) of 2.84 µM, a TGI (OVCAR-8 ovarian) of 7.62 µM and a GI50 (PC-3 prostate) of 3.17 µM. The TGI (PC-3 prostate) was 55.8 µM, the GI50 (RPMI-8226 leukemia) was 0.656 µM and the TGI (RPMI-8226 leukemia) was 54.9 µM. The GI50 (RXF 393 renal) was 0.139 µM, the TGI (RXF 393 renal) was 0.909 µM and the GI50 (SF-268 CNS) was 1.88 µM. For the same molecule, the TGI (SF-268 CNS) was 4.41 µM, the GI50 (SF-295 CNS) was 4.33 µM and the TGI (SF-295 CNS) was 69.8 µM. For the same molecule, the GI50 (SF-539 CNS) was 5.77 µM, the TGI (SF-539 CNS) was > 100 µM and the GI50 (SK-MEL-2 melanoma) was 4.36 µM. It also gave a TGI (SK-MEL-2 melanoma) of 25.6 µM, a GI50 (SK-MEL-5 melanoma) of 3.46 µM and a TGI (SK-MEL-5 melanoma) of 12.9 µM. For the same molecule, the GI50 (SK-OV-3 ovarian) was 4.35 µM, the TGI (SK-OV-3 ovarian) was 76.6 µM and the GI50 (SN12C renal) was 3.63 µM. For the same molecule, the TGI (SN12C renal) was > 100 µM, the GI50 (SNB-19 CNS) was 3.19 µM and the TGI (SNB-19 CNS) was 7.7 µM. For the same molecule, the GI50 (SNB-75 CNS) was 4.29 µM, the TGI (SNB-75 CNS) was 17.1 µM and the GI50 (SR leukemia) was 0.367 µM. The TGI (SR leukemia) was > 100 µM, the GI50 (SW-620 colon) was 2.05 µM and the TGI (SW-620 colon) was > 100 µM. It also gave a GI50 (T-47D breast) of 1.91 µM, a TGI (T-47D breast) of 5.31 µM and a GI50 (TK-10 renal) of 4.76 µM. For the same molecule, the TGI (TK-10 renal) was > 100 µM, the GI50 (U251 CNS) was 2.67 µM and the TGI (U251 CNS) was 7.24 µM. The GI50 (UACC-257 melanoma) was 2.57 µM, the TGI (UACC-257 melanoma) was 6.32 µM and the GI50 (UACC-62 melanoma) was 4 µM. The TGI (UACC-62 melanoma) was > 100 µM, the GI50 (UO-31 renal) was 2 µM and the TGI (UO-31 renal) was 4.42 µM.
